Sequences of proteins named here, by UniProt entry; tags and fusion partners are left off.
UniProt P14416, whole entry, looked up: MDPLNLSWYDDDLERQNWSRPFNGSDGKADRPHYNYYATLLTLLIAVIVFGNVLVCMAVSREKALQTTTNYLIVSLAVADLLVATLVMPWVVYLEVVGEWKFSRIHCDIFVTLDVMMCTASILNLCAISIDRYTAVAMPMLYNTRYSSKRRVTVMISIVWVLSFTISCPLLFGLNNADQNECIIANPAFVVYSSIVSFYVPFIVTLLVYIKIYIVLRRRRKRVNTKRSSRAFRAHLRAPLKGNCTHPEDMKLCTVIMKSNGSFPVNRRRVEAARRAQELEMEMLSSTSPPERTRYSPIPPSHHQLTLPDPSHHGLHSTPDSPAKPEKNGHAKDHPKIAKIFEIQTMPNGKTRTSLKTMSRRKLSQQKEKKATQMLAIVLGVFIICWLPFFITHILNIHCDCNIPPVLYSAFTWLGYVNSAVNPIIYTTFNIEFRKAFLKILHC
UniProt P35462, whole entry, looked up: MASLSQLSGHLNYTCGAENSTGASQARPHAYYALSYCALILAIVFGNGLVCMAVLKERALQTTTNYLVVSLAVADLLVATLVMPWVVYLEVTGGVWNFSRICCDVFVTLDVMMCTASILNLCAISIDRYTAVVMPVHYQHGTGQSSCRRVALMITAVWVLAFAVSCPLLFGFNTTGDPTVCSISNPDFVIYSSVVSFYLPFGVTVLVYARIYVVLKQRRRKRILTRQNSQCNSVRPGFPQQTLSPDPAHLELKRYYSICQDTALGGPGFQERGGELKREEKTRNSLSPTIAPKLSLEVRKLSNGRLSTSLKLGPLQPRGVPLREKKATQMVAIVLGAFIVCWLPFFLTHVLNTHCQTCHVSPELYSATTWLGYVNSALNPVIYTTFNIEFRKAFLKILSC

In BindingDB's records for 33422983, “Recent findings leading to the discovery of selective dopamine D4 receptor ligands for the treatment of widespread diseases” (2021):

Tests used:
[1] = molecular target: D(2) dopamine receptor (Homo sapiens, UniProt P14416); assay: Binding affinity to D2R (unknown origin) assessed as inhibition constant
[2] = molecular target: D(3) dopamine receptor (Homo sapiens, UniProt P35462); assay: Binding affinity to D3R (unknown origin) assessed as inhibition constant

O=c1cc(CNC[C@@H](CO)Cc2ccsc2)[nH]c2ccc(F)cc12
Ki [1]: > 10 µM | Ki [2]: > 10 µM
